{
  "sequences": {"note": "By UniProt entry, the sequences of proteins in these tests, tags left out. Where a name states a change or a piece, a line headed by the entry shows the natural chain unless it says otherwise.", "UniProt P11388": "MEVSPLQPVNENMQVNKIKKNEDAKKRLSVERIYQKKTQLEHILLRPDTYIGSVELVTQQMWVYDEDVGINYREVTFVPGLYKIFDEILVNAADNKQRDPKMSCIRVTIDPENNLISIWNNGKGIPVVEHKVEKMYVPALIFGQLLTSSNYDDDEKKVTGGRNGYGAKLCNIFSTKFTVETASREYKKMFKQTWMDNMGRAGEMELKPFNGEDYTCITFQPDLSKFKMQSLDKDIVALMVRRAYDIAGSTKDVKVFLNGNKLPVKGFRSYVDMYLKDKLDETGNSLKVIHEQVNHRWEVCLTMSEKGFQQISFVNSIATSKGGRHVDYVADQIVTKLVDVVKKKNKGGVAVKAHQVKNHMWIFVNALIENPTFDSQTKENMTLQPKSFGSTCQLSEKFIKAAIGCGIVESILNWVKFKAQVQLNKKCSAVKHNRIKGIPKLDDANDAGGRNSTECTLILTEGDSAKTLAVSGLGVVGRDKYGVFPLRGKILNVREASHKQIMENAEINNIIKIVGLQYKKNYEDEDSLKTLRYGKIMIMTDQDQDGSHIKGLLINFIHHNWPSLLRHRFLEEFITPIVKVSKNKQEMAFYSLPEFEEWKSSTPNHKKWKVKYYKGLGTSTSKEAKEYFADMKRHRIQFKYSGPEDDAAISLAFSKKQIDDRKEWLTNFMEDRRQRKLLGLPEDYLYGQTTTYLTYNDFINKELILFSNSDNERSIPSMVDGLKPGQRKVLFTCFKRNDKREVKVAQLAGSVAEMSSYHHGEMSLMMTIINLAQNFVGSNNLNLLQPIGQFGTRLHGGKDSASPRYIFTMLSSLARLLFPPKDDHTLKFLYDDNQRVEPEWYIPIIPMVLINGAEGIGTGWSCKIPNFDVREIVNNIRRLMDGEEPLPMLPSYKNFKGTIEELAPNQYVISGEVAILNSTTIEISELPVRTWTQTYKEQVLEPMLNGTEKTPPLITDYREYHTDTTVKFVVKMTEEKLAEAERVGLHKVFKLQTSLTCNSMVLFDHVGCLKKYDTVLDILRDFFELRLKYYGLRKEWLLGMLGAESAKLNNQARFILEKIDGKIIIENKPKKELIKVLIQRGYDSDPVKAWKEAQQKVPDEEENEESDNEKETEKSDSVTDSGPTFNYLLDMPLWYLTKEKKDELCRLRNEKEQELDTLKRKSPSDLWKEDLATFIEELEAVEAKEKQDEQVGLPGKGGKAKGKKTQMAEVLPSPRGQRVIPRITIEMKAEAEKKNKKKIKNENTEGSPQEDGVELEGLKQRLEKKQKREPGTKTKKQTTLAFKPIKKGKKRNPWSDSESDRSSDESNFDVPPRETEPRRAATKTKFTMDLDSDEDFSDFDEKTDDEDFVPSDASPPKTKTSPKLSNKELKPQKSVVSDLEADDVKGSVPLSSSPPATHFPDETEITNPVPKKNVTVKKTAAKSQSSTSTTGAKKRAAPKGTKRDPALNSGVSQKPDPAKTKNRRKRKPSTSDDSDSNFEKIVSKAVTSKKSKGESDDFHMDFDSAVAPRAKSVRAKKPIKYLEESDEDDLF"},
  "source": "paper PMC10791108",
  "about": "(Journal of Enzyme Inhibition and Medicinal Chemistry, 2024)",
  "biological_target": "Topo IIα (Homo sapiens, UniProt P11388)",
  "assay": "pBR322 DNA relaxation assay",
  "format": "biochemical",
  "settings": "gel, reference at 100 µM",
  "data": [
    {"smiles": "COc1cc([C@@H]2c3cc4c(cc3[C@@H](O[C@@H]3O[C@@H]5CO[C@@H](C)O[C@H]5[C@H](O)[C@H]3O)[C@H]3COC(=O)[C@H]23)OCO4)cc(OC)c1O", "note": "[Etoposide, etoposide, reference compound]", "values": [
      {"measurement": "Inhibition of Topo IIα-mediated pBR322 relaxation", "result": "completely inhibited relaxation activity"}
    ]}
  ]
}
